Literature values as cited in publication PMC5647227 (ACS chemical neuroscience, 2017).

Sequences of proteins named here, by UniProt entry; tags and fusion partners are left off.
UniProt P32300, whole entry: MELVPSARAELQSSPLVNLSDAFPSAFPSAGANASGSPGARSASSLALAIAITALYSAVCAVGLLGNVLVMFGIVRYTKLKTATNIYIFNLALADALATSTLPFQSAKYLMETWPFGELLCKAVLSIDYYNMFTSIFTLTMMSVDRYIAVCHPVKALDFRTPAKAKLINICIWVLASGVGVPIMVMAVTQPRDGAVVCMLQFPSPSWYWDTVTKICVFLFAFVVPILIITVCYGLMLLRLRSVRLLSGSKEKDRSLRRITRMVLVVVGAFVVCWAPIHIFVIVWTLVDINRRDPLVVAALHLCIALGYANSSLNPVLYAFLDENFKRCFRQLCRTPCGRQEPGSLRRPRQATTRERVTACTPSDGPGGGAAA
UniProt P33533, whole entry: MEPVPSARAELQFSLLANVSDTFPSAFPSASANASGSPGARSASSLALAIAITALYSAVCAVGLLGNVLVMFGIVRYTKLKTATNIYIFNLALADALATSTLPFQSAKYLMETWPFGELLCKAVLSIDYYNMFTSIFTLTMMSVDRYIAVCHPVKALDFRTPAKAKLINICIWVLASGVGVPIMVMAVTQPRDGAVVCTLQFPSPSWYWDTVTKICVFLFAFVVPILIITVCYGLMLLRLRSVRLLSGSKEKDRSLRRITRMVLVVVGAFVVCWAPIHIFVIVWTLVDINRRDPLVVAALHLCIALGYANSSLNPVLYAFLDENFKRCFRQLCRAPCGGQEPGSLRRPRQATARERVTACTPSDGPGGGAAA

How the values were obtained:
DOP receptor [1] = biological target: DOP receptor (Mus musculus, UniProt P32300); details: read-out: MVD IC50; DOP receptor-representative assay; ref Ballet et al.[1]; cited from earlier work
DOP receptor [2] = biological target: DOP receptor (Rattus norvegicus, UniProt P33533); details: read-out: DOP Ki; [3H]DSLET, rat brain membranes; ref Ballet et al.[1]; cited from earlier work

| Substance | IC50 (DOP receptor [1]) | Ki (DOP receptor [2]) |
| --- | --- | --- |
| H-Dmt-D-Arg-Aba-Gly-NH2 [Compound 1] | 0.42 nM | 0.6 nM |
| H-Dmt-D-Arg-Aba-Gly-NMe-3′,5′-(CF3)2-Bn [Compound 3] | 43.3 nM | 10.4 nM |
